Tests used:
EP2 (h) = EP2 (h) (Homo sapiens, UniProt P43116); format: binding
NK2 (h) = NK2 (h) (Homo sapiens, UniProt P21452); test: biochemical; format: binding
BRD2(1) = BRD2(1) (Homo sapiens, UniProt P25440); test: biochemical

By UniProt entry, the sequences of proteins in these tests, tags left out. Where a name states a change or a piece, a line headed by the entry shows the natural chain unless it says otherwise. Residues count along the entry.
UniProt P43116: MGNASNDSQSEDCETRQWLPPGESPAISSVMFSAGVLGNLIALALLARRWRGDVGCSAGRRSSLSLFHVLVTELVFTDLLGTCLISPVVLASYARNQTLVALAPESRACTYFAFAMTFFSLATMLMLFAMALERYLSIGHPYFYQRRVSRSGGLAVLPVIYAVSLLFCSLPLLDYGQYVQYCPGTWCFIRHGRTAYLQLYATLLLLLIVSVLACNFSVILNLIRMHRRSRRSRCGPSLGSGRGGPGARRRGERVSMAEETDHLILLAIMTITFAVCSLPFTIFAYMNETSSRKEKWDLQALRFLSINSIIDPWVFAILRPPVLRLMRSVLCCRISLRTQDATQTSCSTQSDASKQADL
UniProt P21452, whole entry: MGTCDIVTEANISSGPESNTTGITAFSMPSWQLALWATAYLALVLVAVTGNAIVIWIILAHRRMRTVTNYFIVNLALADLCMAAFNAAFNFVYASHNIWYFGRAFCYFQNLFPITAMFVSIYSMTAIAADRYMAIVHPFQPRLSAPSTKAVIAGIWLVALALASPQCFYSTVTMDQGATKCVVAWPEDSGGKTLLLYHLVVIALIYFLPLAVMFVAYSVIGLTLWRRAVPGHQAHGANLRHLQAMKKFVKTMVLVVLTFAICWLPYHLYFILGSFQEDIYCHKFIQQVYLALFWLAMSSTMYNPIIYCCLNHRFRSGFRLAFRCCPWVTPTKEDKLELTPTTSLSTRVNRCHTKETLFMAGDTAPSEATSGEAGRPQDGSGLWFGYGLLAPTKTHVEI
UniProt P25440, 74-180 limits assumed: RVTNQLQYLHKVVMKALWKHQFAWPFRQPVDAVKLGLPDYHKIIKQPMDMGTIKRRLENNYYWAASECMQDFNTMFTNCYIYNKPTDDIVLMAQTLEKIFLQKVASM

CCCCC[C@H](O)/C=C/[C@H]1[C@H](O)CC(=O)[C@@H]1C/C=C\CCCC(=O)O [PGE2]
IC50 (EP2 (h)): 3 nM | Ki (EP2 (h); read-out: Ki Ref.): 1.5 nM

CCCC[C@H](NC(=O)[C@H](CC(C)C)NC(=O)CNC(=O)[C@@H](NC(=O)[C@H](Cc1ccccc1)NC(=O)[C@H](CO)NC(=O)[C@@H](N)CC(=O)O)C(C)C)C(N)=O
IC50 (NK2 (h)): 2.8 nM | Ki (NK2 (h)): 1.5 nM

CCOC(=O)Nc1cc(-c2ccc(C)c(NS(C)(=O)=O)c2)nn2c(C)nnc12 [BSP, ethyl (3-methyl-6-(4-methyl-3-(methylsulfonamido)phenyl)-[1,2,4]triazolo[4,3-b]pyridazin-8-yl)carbamate]
Kd (BRD2(1)): 97.1 ± 6.7 nM
